Results: patent publication US5208227A, “Method, compositions, and compounds for modulating brain excitability” (priority 1991, dated 1993)

Test system: GBR complex ([35S]TBPS site)
Assay: dissociation kinetics of [35S]TBPS in cortical P2 homogenates
Format: binding, rat
Settings: [35S]TBPS dissociation; alphaxalone 300 nM; 3a-OH-DHP 20 nM
Description: An assay was performed to determine the effect of pentobarbital on the dissociation kinetics of [^35 S]TBPS in rat cerebral cortical membranes. This assay was performed in accordance with the procedures outlined above. […] Dissociation of bound [^35 S]TBPS was initiated by 2 micromolar TBPS in all cases.
The steroid and barbiturate sites are, therefore, distinct.

SMILES: CC(=O)[C@H]1CC[C@H]2[C@@H]3CC[C@H]4C[C@H](O)CC[C@]4(C)[C@H]3CC[C@]12C [3α-hydroxy-5α-pregnan-20-one]
- k-1, rapidly dissociating component (R): 0.122 min⁻¹
